# Cyclic peptide permeability, from CycPeptMPDB

Values of Pye et al. 2017, doi:10.1021/acs.jmedchem.6b01483, as listed in CycPeptMPDB.

PAMPA is the parallel artificial membrane permeability assay, which has no cells and reads passive diffusion.
RRCK is a low-efflux MDCK cell line.
Values are log10 P with P in cm/s, so -5 is more permeable than -7.
A value with < or ≤ is an upper limit.
"–" marks a cell with nothing listed here.

compound,PAMPA (log10 cm/s),RRCK (log10 cm/s)
CCC[C@@H]1C(=O)N(C)[C@@H](CCC)C(=O)N(C)[C@H](CCC)C(=O)N2CCC[C@@H]2C(=O)N(C)[C@@H](Cc2ccc(O)cc2)C(=O)N(C)[C@H](CC)C(=O)N(C)[C@@H](CCC)C(=O)N(C)[C@H](CCC)C(=O)N1C,-5.40,-5.14
CC(C)C[C@@H]1C(=O)N(C)[C@@H](CC(C)C)C(=O)N(C)[C@H](CC(C)C)C(=O)N2CCC[C@@H]2C(=O)N(C)[C@@H](Cc2ccc(O)cc2)C(=O)N(C)[C@H](C)C(=O)N(C)[C@@H](C)C(=O)N(C)[C@H](CC(C)C)C(=O)N1C,-5.10,-4.99
CCC[C@@H]1C(=O)N(C)[C@@H](CC)C(=O)N(C)[C@H](CCC)C(=O)N2CCC[C@@H]2C(=O)N(C)[C@@H](Cc2ccc(O)cc2)C(=O)N(C)[C@@H](CCC)C(=O)N(C)[C@H](CC)C(=O)N(C)[C@@H](CCC)C(=O)N(C)[C@H](CCC)C(=O)N1C,-5.35,-5.45
CCCC[C@@H]1C(=O)N(C)[C@@H](C)C(=O)N(C)[C@H](C)C(=O)N2CCC[C@@H]2C(=O)N(C)[C@@H](Cc2ccc(O)cc2)C(=O)N(C)[C@H](CC)C(=O)N(C)[C@@H](C)C(=O)N(C)[C@H](C)C(=O)N1C,-6.62,-6.66
CC(C)C[C@@H]1C(=O)N(C)[C@@H](CC(C)C)C(=O)N(C)[C@H](CC(C)C)C(=O)N2CCC[C@@H]2C(=O)N(C)[C@@H](Cc2ccc(O)cc2)C(=O)N(C)[C@H](CC(C)C)C(=O)N(C)[C@@H](CC(C)C)C(=O)N(C)[C@H](CC(C)C)C(=O)N1C,-7.48,< -7.00
CCCC[C@@H]1C(=O)N(C)[C@@H](CCCC)C(=O)N(C)[C@H](CCCC)C(=O)N2CCC[C@@H]2C(=O)N(C)[C@@H](Cc2ccc(O)cc2)C(=O)N(C)[C@H](CC)C(=O)N(C)[C@@H](CCCC)C(=O)N(C)[C@H](CCCC)C(=O)N1C,< -8.00,< -7.00
CC(C)C[C@@H]1C(=O)N(C)[C@@H](C)C(=O)N(C)[C@H](CC(C)C)C(=O)N2CCC[C@@H]2C(=O)N(C)[C@@H](Cc2ccc(O)cc2)C(=O)N(C)[C@H](CC(C)C)C(=O)N(C)[C@@H](C)C(=O)N(C)[C@H](CC(C)C)C(=O)N1C,-4.72,-4.90
CCC[C@H]1C(=O)N(C)[C@H](CC)C(=O)N(C)[C@@H](C)C(=O)N(C)[C@H](CC)C(=O)N(C)[C@H](CC)C(=O)N(C)[C@@H](C)C(=O)N(C)[C@H](CC)C(=O)N2CCC[C@@H]2C(=O)N(C)[C@@H](Cc2ccc(O)cc2)C(=O)N(C)[C@H](C)C(=O)N1C,-6.92,< -7.00
CCC[C@H]1C(=O)N(C)[C@H](CC)C(=O)N(C)[C@@H](C)C(=O)N(C)[C@H](CC)C(=O)N(C)[C@H](C)C(=O)N(C)[C@@H](C)C(=O)N(C)[C@H](CC)C(=O)N2CCC[C@@H]2C(=O)N(C)[C@@H](Cc2ccc(O)cc2)C(=O)N1C,-7.30,-6.89
CCCC[C@@H]1C(=O)N(C)[C@@H](CCCC)C(=O)N(C)[C@H](CC)C(=O)N2CCC[C@@H]2C(=O)N(C)[C@@H](Cc2ccc(O)cc2)C(=O)N(C)[C@H](C)C(=O)N(C)[C@@H](CCC)C(=O)N(C)[C@H](CC)C(=O)N(C)[C@@H](CCCC)C(=O)N(C)[C@H](CC)C(=O)N1C,-6.10,–
CC(C)C[C@@H]1C(=O)N(C)[C@@H](CC(C)C)C(=O)N(C)[C@H](C)C(=O)N2CCC[C@@H]2C(=O)N(C)[C@@H](Cc2ccc(O)cc2)C(=O)N(C)[C@H](CC(C)C)C(=O)N(C)[C@@H](C)C(=O)N(C)[C@H](CC(C)C)C(=O)N1C,-4.72,-5.56
CCCC[C@@H]1C(=O)N(C)[C@@H](CCCC)C(=O)N(C)[C@H](C)C(=O)N2CCC[C@@H]2C(=O)N(C)[C@@H](Cc2ccc(O)cc2)C(=O)N(C)[C@H](CC)C(=O)N(C)[C@@H](CCCC)C(=O)N(C)[C@H](CC)C(=O)N1C,-5.48,-5.40
CCCC[C@H]1C(=O)N(C)[C@H](CC)C(=O)N(C)[C@H](C)C(=O)N(C)[C@@H](CCC)C(=O)N(C)[C@H](CC)C(=O)N2CCC[C@@H]2C(=O)N(C)[C@@H](Cc2ccc(O)cc2)C(=O)N(C)[C@H](C)C(=O)N(C)[C@@H](CCC)C(=O)N(C)[C@H](CC)C(=O)N1C,-5.85,-6.24
C[C@@H]1C(=O)N(C)[C@@H](C)C(=O)N(C)[C@H](C)C(=O)N2CCC[C@@H]2C(=O)N(C)[C@@H](Cc2ccc(O)cc2)C(=O)N(C)[C@H](C)C(=O)N(C)[C@@H](C)C(=O)N(C)[C@H](C)C(=O)N1C,-7.64,-6.18
CC(C)C[C@@H]1C(=O)N(C)[C@@H](C)C(=O)N(C)[C@H](C)C(=O)N2CCC[C@@H]2C(=O)N(C)[C@@H](Cc2ccc(O)cc2)C(=O)N(C)[C@H](CC(C)C)C(=O)N(C)[C@@H](CC(C)C)C(=O)N(C)[C@H](CC(C)C)C(=O)N1C,-5.22,-5.14
CC(C)C[C@@H]1C(=O)N(C)[C@H](C)C(=O)N(C)[C@@H](CC(C)C)C(=O)N(C)[C@H](CC(C)C)C(=O)N2CCC[C@@H]2C(=O)N(C)[C@@H](Cc2ccc(O)cc2)C(=O)N(C)[C@H](CC(C)C)C(=O)N(C)[C@@H](C)C(=O)N1C,-4.62,-5.01
CC(C)C[C@@H]1C(=O)N(C)[C@@H](CC(C)C)C(=O)N(C)[C@H](C)C(=O)N2CCC[C@@H]2C(=O)N(C)[C@@H](Cc2ccc(O)cc2)C(=O)N(C)[C@H](C)C(=O)N(C)[C@@H](CC(C)C)C(=O)N(C)[C@H](CC(C)C)C(=O)N1C,-4.96,-5.05
CC(C)C[C@@H]1C(=O)N2CCC[C@@H]2C(=O)N(C)[C@@H](Cc2ccc(O)cc2)C(=O)N(C)[C@H](CC(C)C)C(=O)N(C)[C@@H](CC(C)C)C(=O)N(C)[C@H](C)C(=O)N(C)[C@H](C)C(=O)N(C)[C@@H](CC(C)C)C(=O)N1C,-5.40,-5.35
CCCC[C@@H]1C(=O)N(C)[C@H](C)C(=O)N(C)[C@@H](CCCC)C(=O)N(C)[C@H](C)C(=O)N2CCC[C@@H]2C(=O)N(C)[C@@H](Cc2ccc(O)cc2)C(=O)N(C)[C@@H](CCC)C(=O)N(C)[C@H](CC)C(=O)N(C)[C@@H](C)C(=O)N1C,-6.10,-6.21
CC(C)C[C@@H]1C(=O)N(C)[C@@H](C)C(=O)N(C)[C@H](C)C(=O)N2CCC[C@@H]2C(=O)N(C)[C@@H](Cc2ccc(O)cc2)C(=O)N(C)[C@H](C)C(=O)N(C)[C@@H](CC(C)C)C(=O)N(C)[C@H](C)C(=O)N1C,-6.00,-6.42
CCCC[C@@H]1C(=O)N(C)[C@@H](CCCC)C(=O)N(C)[C@H](CCCC)C(=O)N2CCC[C@@H]2C(=O)N(C)[C@@H](Cc2ccc(O)cc2)C(=O)N(C)[C@@H](CCC)C(=O)N(C)[C@H](CC)C(=O)N(C)[C@@H](CCCC)C(=O)N(C)[C@H](CCCC)C(=O)N1C,< -8.00,< -7.00

A selection of 3 entries from above:

| compound | PAMPA (log10 cm/s) | RRCK (log10 cm/s) |
|---|---|---|
| CCCC[C@@H]1C(=O)N(C)[C@@H](CCCC)C(=O)N(C)[C@H](CC)C(=O)N2CCC[C@@H]2C(=O)N(C)[C@@H](Cc2ccc(O)cc2)C(=O)N(C)[C@H](C)C(=O)N(C)[C@@H](CCC)C(=O)N(C)[C@H](CC)C(=O)N(C)[C@@H](CCCC)C(=O)N(C)[C@H](CC)C(=O)N1C | -6.10 | – |
| CC(C)C[C@@H]1C(=O)N(C)[C@@H](CC(C)C)C(=O)N(C)[C@H](C)C(=O)N2CCC[C@@H]2C(=O)N(C)[C@@H](Cc2ccc(O)cc2)C(=O)N(C)[C@H](C)C(=O)N(C)[C@@H](CC(C)C)C(=O)N(C)[C@H](CC(C)C)C(=O)N1C | -4.96 | -5.05 |
| CCCC[C@H]1C(=O)N(C)[C@H](CC)C(=O)N(C)[C@H](C)C(=O)N(C)[C@@H](CCC)C(=O)N(C)[C@H](CC)C(=O)N2CCC[C@@H]2C(=O)N(C)[C@@H](Cc2ccc(O)cc2)C(=O)N(C)[C@H](C)C(=O)N(C)[C@@H](CCC)C(=O)N(C)[C@H](CC)C(=O)N1C | -5.85 | -6.24 |

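The data file gives no further conditions (lipid, pH, time, direction or concentration), and values from different papers need not be comparable. The list need not hold all peptides of the study. Entries at the database's floor value (log10 P of -10) are not listed.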